## Ab-14 light chain CDR variants: yeast mating affinities

Values reported by Li et al. 2023, doi:10.1038/s41467-023-39022-2 (FLAb copy).

Target: peptide PDVDLGDISGINAS, taken from heptad repeat 2 (HR2) of SARS-CoV-2 spike.

Parent scFv Ab-14: VH joined to VL by a 15-residue (Gly4Ser)3 linker. Changes lie in the light chain CDRs alone.
VH: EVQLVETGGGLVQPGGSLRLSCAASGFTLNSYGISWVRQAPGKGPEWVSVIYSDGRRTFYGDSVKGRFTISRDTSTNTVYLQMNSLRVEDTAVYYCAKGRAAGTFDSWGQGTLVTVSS
VL: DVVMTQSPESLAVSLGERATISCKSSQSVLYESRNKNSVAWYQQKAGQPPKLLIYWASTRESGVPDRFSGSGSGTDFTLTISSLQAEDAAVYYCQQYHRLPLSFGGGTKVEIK

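Designed CDR sequences, proposed from the first random library and measured here. Their group label is 14L_GP_HC (GP: Gaussian process model; HC: hill climbing; a sequence that several methods proposed may carry one label only). The scFvs were displayed on barcoded MATa yeast, the peptide on MATalpha yeast. Mating (16 h, 30 °C) was followed by selection of diploids and sequencing of their barcodes. A regression on co-assayed BCL2-family reference pairs converts the normalised counts of each replicate to an apparent Kd. The assay was run in six technical replicates.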

Sequences are complete VL domains.
Numbers give log10(Kd / nM), so 0 is 1 nM and 3 is 1 µM. Smaller is tighter.
The mean shown is taken over the replicates in which the pair was detected.
Nonspecific signal, from three strains lacking the peptide, appeared in 4% of pairings of all light chain designs, centred on 2.64 (5% of these signals below 1.59); values are not corrected for it. The control count says in how many pairings with the empty strains this scFv gave a signal, with their mean in brackets.
A sequence measured in both rounds can read differently, since the two assays cover different ranges.
In the paper, a design with two or fewer of six values counts as a poor binder.

VL | replicates, log10 nM | log10 Kd (nM), mean | control signals
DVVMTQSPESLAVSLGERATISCHSSPSVTYESRNKNSVAWYQQKAGQPPKLLIYNASTRESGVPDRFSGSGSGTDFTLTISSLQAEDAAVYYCQQYHRLPLSFGGGTKVEIK | 0.26 0.04 0.14 0.07 0.05 0.23 | 0.13 | 0 of 18
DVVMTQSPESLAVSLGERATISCKSLQSGLYESRDKNSVAWYQQKAGQPPKLLIYHASTREDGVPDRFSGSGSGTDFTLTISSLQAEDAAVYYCQQYHRLPLSFGGGTKVEIK | 0.36 0.07 -0.17 -0.27 0.10 0.06 | 0.03 | 0 of 18
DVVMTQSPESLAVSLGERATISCHSSQSVLYESRNKNSVAWYQQKAGQPPKLLIYNASTREVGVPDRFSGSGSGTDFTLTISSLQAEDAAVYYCQQYHRLPLSFGGGTKVEIK | 0.13 0.24 0.28 0.10 0.16 0.50 | 0.23 | 2 of 18 (2.36)
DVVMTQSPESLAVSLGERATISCKSSNSYLYESGNKNSVAWYQQKAGQPPKLLIYEASTRESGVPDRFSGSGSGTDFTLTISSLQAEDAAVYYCQQYHRLPLSFGGGTKVEIK | 0.34 0.37 0.40 0.27 -0.02 0.07 | 0.24 | 1 of 18 (2.85)
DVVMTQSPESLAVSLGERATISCKVSQSVLYESGMKNSVAWYQQKAGQPPKLLIYNASSRESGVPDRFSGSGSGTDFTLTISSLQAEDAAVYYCQQYHRLPLSFGGGTKVEIK | 0.08 -0.04 -0.11 -0.22 0.00 0.10 | -0.03 | 2 of 18 (2.60)
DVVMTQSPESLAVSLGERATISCHLSWVTLYESRNKNSVAWYQQKAGQPPKLLIYNASTRESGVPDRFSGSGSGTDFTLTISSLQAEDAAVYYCQQYHRLPLSFGGGTKVEIK | -0.29 -0.18 -0.37 -0.50 -0.24 -0.02 | -0.27 | 0 of 18
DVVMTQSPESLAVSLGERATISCKLPMSTLYESRNKNSVAWYQQKAGQPPKLLIYNASTRESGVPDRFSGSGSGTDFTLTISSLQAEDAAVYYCQQYHRLPLSFGGGTKVEIK | -0.10 -0.36 -0.28 -0.28 -0.51 -0.15 | -0.28 | 1 of 18 (4.28)
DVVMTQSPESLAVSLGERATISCKLRQSMEYESRNKNSVAWYQQKAGQPPKLLIYWASTRLSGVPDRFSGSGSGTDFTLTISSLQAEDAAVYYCQQYHRLPLSFGGGTKVEIK | 1.49 1.72 1.31 0.99 1.14 1.34 | 1.33 | 1 of 18 (3.59)
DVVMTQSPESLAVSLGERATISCKLQQQTLYESRNKNSVAWYQQKAGQPPKLLIYSASTREEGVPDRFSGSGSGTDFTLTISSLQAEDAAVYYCQQYHRLPLSFGGGTKVEIK | -0.17 -0.16 -0.05 -0.36 -0.07 0.04 | -0.13 | 0 of 18
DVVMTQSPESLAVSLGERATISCKMQQGVLYESRNKNSVAWYQQKAGQPPKLLIYGASTRESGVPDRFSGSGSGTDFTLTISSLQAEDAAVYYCQQYHRLPLSFGGGTKVEIK | -0.09 -0.15 -0.15 -0.23 -0.01 0.00 | -0.11 | 2 of 18 (3.50)
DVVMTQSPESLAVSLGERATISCKSSQSWLYESRNKNSVAWYQQKAGQPPKLLIYGASERESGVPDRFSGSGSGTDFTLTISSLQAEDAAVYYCQQYHRLPLSFGGGTKVEIK | -0.44 -0.52 -0.71 -0.66 -0.62 -0.33 | -0.55 | 0 of 18
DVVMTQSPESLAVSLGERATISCKSSISYLYESGNTNSVAWYQQKAGQPPKLLIYEASTRESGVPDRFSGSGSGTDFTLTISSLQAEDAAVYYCQQYHRLPLSFGGGTKVEIK | 0.61 0.54 0.44 0.33 0.48 0.54 | 0.49 | 3 of 18 (2.81)
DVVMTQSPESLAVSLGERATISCKSLQSWLYESRNKNSVAWYQQKAGQPPKLLIYHASLREQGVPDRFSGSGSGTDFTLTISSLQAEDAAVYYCQQYHRLPLSFGGGTKVEIK | 0.38 0.24 0.68 0.50 0.73 0.52 | 0.51 | 1 of 18 (2.50)
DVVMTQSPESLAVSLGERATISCKLRQSTLYESRNPNSVAWYQQKAGQPPKLLIYDASTRESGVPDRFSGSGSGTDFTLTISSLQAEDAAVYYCQQYHRLPLSFGGGTKVEIK | 0.47 0.32 -0.01 -0.01 0.03 0.07 | 0.15 | 0 of 18
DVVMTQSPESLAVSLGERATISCKLRMSTLYESRNKNSVAWYQQKAGQPPKLLIYKASTRESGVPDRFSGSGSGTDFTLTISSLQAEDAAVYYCQQYHRLPLSFGGGTKVEIK | 0.42 0.02 0.37 0.16 0.24 0.41 | 0.27 | 0 of 18
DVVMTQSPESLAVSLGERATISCQLSQSFLYESRNKNSVAWYQQKAGQPPKLLIYGASTRESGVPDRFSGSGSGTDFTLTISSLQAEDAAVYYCQQYHRLTLSFGGGTKVEIK | 0.31 0.15 -0.10 -0.33 -0.27 0.35 | 0.02 | 0 of 18
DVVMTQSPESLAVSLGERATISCKQQQSVLYESRNKNSVAWYQQKAGQPPKLLIYDASTRESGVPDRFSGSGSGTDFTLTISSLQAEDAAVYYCQQYQRLPLSFGGGTKVEIK | -0.46 -0.85 -0.59 -0.67 -0.94 -0.50 | -0.67 | 0 of 18
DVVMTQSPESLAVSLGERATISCKESQSVLPEWRNKNSVAWYQQKAGQPPKLLIYDASTRESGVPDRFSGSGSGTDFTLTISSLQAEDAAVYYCQQYHRLPLSFGGGTKVEIK | -0.07 0.43 -0.10 -0.32 -0.41 -0.06 | -0.09 | 1 of 18 (2.30)
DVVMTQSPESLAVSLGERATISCKSSISYLYESGNKNSVAWYQQKAGQPPKLLIYAASTRESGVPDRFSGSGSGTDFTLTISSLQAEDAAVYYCQQYHRLPLSFGGGTKVEIK | 0.21 0.10 -0.19 0.51 -0.41 -0.04 | 0.03 | 0 of 18

Picked from the list: the 2 lowest averages where every replicate gave a value.

VL | replicates, log10 nM | log10 Kd (nM), mean | control signals
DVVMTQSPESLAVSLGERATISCKQQQSVLYESRNKNSVAWYQQKAGQPPKLLIYDASTRESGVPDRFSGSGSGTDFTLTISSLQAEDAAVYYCQQYQRLPLSFGGGTKVEIK | -0.46 -0.85 -0.59 -0.67 -0.94 -0.50 | -0.67 | 0 of 18
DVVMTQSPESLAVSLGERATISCKSSQSWLYESRNKNSVAWYQQKAGQPPKLLIYGASERESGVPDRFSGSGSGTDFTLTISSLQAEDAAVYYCQQYHRLPLSFGGGTKVEIK | -0.44 -0.52 -0.71 -0.66 -0.62 -0.33 | -0.55 | 0 of 18